Reference: Sander's compilation of Henry's law constants (doi:10.1098/rspb.1975.0059)

Experiment: Henry solubility constant Hcp at 293 K (mol/(m3 Pa))
Conditions: reference: Pearson and McConnell (1975)

Henry solubility constant Hcp at 293 K: 0.0014
Compound: CCl [chloromethane]
